Experiment [1] deals with early stage breast cancer with HER2 gene amplification/overexpression. Put plainly: NSABP trial B-31 retrospective analysis: recurrence free survival by cMYC amplification status (FISH), chemotherapy vs chemotherapy plus Trastuzumab. The class given is in vivo. To be noted: patients with no amplification of cMYC gene (N=945), HER2 amplified/overexpressing.
The test system of experiment [2] is early stage breast cancer which have HER2 protein overexpression or HER2 gene amplification. To be noted: adjuvant setting; cited from earlier work.

For the substance Trastuzumab, the “reduction in recurrence rate when Trastuzumab was added to chemotherapy” value in experiment [1] was determined as 34%. Moreover, the “overall reduction in recurrence rate with Herceptin compared to chemotherapy alone” value in experiment [2] is “about 50%”.

(Values after patent publication US20060127935A1, “Identification and use of prognostic and predictive markers in cancer treatment” (NSABP Foundation, Inc., priority 2004, published 2006).)
